The target in this data set is CYP2C9 (Homo sapiens, UniProt P11712). As to conditions: substrate 25 μM 7-methoxy-4-trifluoromethylcoumarin-3-acetic acid, 400 μg/mL CYP2C9 microsomal protein, 37° C., excitation 410 nm, emission 510 nm.

By UniProt entry, the sequences of proteins in these tests, tags left out.
UniProt P11712, whole entry, species assumed: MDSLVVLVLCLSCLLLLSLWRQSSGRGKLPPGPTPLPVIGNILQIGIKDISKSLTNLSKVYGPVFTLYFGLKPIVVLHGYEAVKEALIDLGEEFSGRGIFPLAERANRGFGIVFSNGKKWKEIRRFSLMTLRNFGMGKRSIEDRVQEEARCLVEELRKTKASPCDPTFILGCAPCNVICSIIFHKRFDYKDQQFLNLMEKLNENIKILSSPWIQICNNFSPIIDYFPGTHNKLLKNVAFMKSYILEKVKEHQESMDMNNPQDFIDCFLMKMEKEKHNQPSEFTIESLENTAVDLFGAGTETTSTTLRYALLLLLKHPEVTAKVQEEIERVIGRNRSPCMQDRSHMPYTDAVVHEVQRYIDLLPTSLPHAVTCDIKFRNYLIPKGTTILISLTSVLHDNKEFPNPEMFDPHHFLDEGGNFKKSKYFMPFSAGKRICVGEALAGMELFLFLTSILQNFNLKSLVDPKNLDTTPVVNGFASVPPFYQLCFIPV

Usually IC50 stands for the point on the concentration scale where inhibition reaches its midpoint. A low value points to greater potency.

sulphaphenazole showed an IC50 of 290 nM.
